Experimental data published in patent publication US20260184748A1, “COMPOSITIONS COMPRISING OCTADECANEUROPEPTIDES (ODN) AND SYNTHETIC DERIVATIVES THEREOF AND METHODS OF USE FOR MODULATION OF FOOD INTAKE, OBESITY, BODY WEIGHT, NAUSEA, AND EMESIS” (The Trustees of the University of Pennsylvania, priority 2022, published 2026).

Amino acid sequences for entries named in this document (tags omitted). A change or cut given only in a name is not applied to a line headed by its entry.
UniProt P48146: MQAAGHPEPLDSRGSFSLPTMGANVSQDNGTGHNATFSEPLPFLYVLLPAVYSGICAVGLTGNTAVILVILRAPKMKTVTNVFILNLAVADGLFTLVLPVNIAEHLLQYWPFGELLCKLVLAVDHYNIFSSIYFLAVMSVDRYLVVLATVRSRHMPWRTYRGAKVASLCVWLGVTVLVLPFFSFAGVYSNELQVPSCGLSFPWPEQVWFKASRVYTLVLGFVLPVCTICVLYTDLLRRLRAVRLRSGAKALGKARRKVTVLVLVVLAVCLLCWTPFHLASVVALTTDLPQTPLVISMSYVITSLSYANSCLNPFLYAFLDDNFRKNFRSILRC

What was measured:
Assay in all cases: Arrestin agonist mode
Format in all cases: cell-based
Details in all cases: read-out: RC50 (the source's name)
NPBWR1 = biological target: T1, NPBWR1 (Homo sapiens, UniProt P48145)
T1 sequence (P48145 1-328): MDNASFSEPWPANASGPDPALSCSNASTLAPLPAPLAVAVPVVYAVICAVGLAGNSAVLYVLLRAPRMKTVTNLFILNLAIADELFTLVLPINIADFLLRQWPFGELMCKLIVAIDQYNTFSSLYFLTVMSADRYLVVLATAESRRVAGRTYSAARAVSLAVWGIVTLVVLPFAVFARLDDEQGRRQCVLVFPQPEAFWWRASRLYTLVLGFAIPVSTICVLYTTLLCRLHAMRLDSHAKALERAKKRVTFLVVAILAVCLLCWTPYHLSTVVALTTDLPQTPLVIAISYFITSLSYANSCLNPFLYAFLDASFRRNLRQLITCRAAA

NPBWR2 = NPBWR2 (Homo sapiens, UniProt P48146)
F2R = biological target: T2, F2R (Homo sapiens, UniProt P25116)
T2 sequence (P25116 22-425): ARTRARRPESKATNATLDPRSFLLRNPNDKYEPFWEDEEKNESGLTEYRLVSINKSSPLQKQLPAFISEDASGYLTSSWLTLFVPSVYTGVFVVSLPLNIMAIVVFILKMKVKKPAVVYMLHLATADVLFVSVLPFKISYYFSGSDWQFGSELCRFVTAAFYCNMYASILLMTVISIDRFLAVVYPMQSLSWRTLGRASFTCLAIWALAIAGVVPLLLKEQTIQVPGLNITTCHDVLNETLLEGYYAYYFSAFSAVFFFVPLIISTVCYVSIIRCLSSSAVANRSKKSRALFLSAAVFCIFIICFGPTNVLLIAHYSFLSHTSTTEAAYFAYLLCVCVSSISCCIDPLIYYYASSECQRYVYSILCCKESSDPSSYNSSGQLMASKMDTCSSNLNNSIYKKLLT

CSCC[C@H](NC(=O)[C@H](CC(C)C)NC(=O)[C@H](CC(C)C)NC(=O)CNC(=O)[C@H](C)NC(=O)[C@H](C)NC(=O)[C@H](CCCNC(=N)N)NC(=O)CNC(=O)[C@@H](NC(=O)[C@@H](NC(=O)[C@H](Cc1c[nH]cn1)NC(=O)[C@H](Cc1ccc(O)cc1)NC(=O)[C@H](CCCNC(=N)N)NC(=O)[C@@H]1CCCN1C(=O)[C@H](CO)NC(=O)[C@H](C)NC(=O)[C@@H](NC(=O)[C@H](Cc1c[nH]cn1)NC(=O)[C@H](CCCCN)NC(=O)[C@H](Cc1ccc(O)cc1)NC(=O)[C@@H](N)Cc1c[nH]c2ccccc12)C(C)C)[C@@H](C)O)C(C)C)C(=O)NCC(=O)N[C@@H](CC(C)C)C(=O)O
EC50 (NPBWR1): 2.17 nM | EC50 (NPBWR2): 3.62 nM

CC(C)C[C@H](NC(=O)[C@H](CC(C)C)NC(=O)[C@H](Cc1ccccc1)NC(=O)[C@@H](N)[C@@H](C)O)C(=O)N[C@@H](CCCNC(=N)N)C(N)=O [TFLLR-NH2]
EC50 (F2R): 14.5 µM
